The numbers were not newly measured in patent publication US20110039809A1 (priority 2008, published 2011), which cites them from elsewhere.

For this data set the following is noted: 10′000 IU; Hathcock et al. 2007; cited from earlier work.

For the substance Vitamin D, the Safe upper level result is recorded as “at least 250 μg/day”.
